From PubChem BioAssay AID580 (SRMLSC, 2007) come the findings set out here.

Each structure is given as a SMILES string. Only a part is listed here, and it is no random draw. Calls of active or inactive are those of the source.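 How the source made its calls: active means viability at or under a set limit in both replicates, limit being median viability minus 3 SD (cut at about 48% in these data, passing the limit was not always enough); inconclusive means at or under the limit in just one replicate; inactive means at or above the limit in both replicates.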

The test in a line: H69AR cell proliferation blockers – human, duplicate replicates, primary screen (AID 580).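 Further: 100% = mean luminescence of untreated wells and 0% = no signal.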 The following applies: H69AR lung tumor cells viability, ATP luminescence, 72 h; at 10 µM; active compounds read low.
Usually viability stands for a per cent measure of how many cells are alive, often set against a control. For the compound `CP(=O)(Nc1ccccn1)Oc1ccccc1` (stereo not given), the viability was inactive: 100%. Turning to `CP(=O)(Nc1ccc2c(c1)OCCO2)Oc1ccccc1` (stereo not given), the viability is inactive: 87.5%.

As to `CN(C)CCOC(=O)C(O)(c1ccccc1)C1CCCCC1` (stereo not given), the viability was inactive: 93.2%. For the compound `Cc1ccc(C)c(NP(C)(=O)Oc2ccccc2)c1` (stereo not given), the viability is inactive: 91.4%. `CP(=S)(Nn1cnnc1)Oc1ccccc1` (stereo not given): the viability is inactive: 83.6%.
